Biological target: Adenosine receptor A1 (Rattus norvegicus, UniProt P25099)

The chains behind the UniProt entries cited, without tags or fusion partners.
UniProt P25099, whole entry: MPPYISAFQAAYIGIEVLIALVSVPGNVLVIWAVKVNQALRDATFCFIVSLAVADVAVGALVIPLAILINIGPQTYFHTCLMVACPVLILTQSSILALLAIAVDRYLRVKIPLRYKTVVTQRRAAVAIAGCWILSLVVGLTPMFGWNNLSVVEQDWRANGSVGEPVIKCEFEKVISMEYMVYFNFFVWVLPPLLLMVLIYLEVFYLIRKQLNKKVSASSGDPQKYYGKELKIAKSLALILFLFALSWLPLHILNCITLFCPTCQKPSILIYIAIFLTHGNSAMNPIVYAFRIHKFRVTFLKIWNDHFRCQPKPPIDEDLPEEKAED

Compound: CCCn1c(=O)c2[nH]c(-c3ccccc3)nc2n(CCC)c1=O [8-Phenyl-1,3-dipropyl-3,9-dihydro-purine-2,6-dione]
- Ki: 0.0102 µM

Compound: Cn1c(=O)c2[nH]c(-c3ccc(C(=O)O)cc3)nc2n(C)c1=O [8-(4-Carboxyphenyl)theophylline]
- Ki: 0.61 µM

Compound: COc1ccc(-c2nc3c([nH]2)c(=O)n(C)c(=O)n3C)cc1 [8-(4-methoxyphenyl)-1,3-dimethyl-1H-purine-2,6(3H,7H)-dione]
- Ki: 0.0444 µM
